Laboratory results taken from article PMC6657668, “Porcine Beta-Defensin 2 Provides Protection Against Bacterial Infection by a Direct Bactericidal Activity and Alleviates Inflammation via Interference With the TLR4/NF-κB Pathway” (Frontiers in Immunology, 2019).

Test system: S. Typhimurium
Experiment: Bactericidal activity assay (colony counting)
Conditions: synthetic PBD-2, 50 μg/ml, heat-treated 56°C 20 min; 5000 CFU; 10 mM phosphate pH 7.0 with 1/100 TSB; 1 h, 37°C

CC[C@H](C)[C@H](NC(=O)[C@@H]1CSSC[C@@H]2NC(=O)[C@@H]3CCCN3C(=O)[C@H](CO)NC(=O)[C@H](Cc3ccccc3)NC(=O)[C@H](CC(N)=O)NC(=O)[C@@H]3CSSC[C@H](NC(=O)[C@H]([C@@H](C)O)NC(=O)CNC(=O)[C@H](CCC(=O)O)NC(=O)[C@H]([C@@H](C)CC)NC(=O)[C@H](CCCNC(=N)N)NC(=O)[C@H](CC(N)=O)NC(=O)[C@H](Cc4ccccc4)NC(=O)[C@H](CC(C)C)NC(=O)[C@@H]4CCCN4C2=O)C(=O)N[C@@H](Cc2ccc(O)cc2)C(=O)N[C@@H](CO)C(=O)NCC(=O)N[C@@H](CCCCN)C(=O)N[C@@H](C)C(=O)N[C@@H](CCCCN)C(=O)N[C@@H](CSSC[C@H](NC(=O)[C@@H](NC(=O)[C@H](Cc2ccc(O)cc2)NC(=O)[C@H](Cc2c[nH]cn2)NC(=O)[C@@H](N)CC(=O)O)[C@@H](C)CC)C(=O)N[C@@H](C)C(=O)N[C@@H](CCCCN)C(=O)N[C@@H](CCCCN)C(=O)NCC(=O)NCC(=O)N[C@@H]([C@@H](C)O)C(=O)N3)C(=O)N1)C(=O)N[C@@H](CCCNC(=N)N)C(=O)O [PBD-2, Porcine beta-defensin 2] (HELM PEPTIDE1{D.H.Y.I.C.A.K.K.G.G.T.C.N.F.S.P.C.P.L.F.N.R.I.E.G.T.C.Y.S.G.K.A.K.C.C.I.R}$PEPTIDE1,PEPTIDE1,5:R3-34:R3|PEPTIDE1,PEPTIDE1,12:R3-27:R3|PEPTIDE1,PEPTIDE1,17:R3-35:R3$$$V2.0; N-terminus and C-terminus assumed)
bacterial killing effect: elicited a bacterial killing effect against S. Typhimurium

Where a SMILES comes first, the peptide text is derived from it.
